In all, about 120,000 compounds went through this assay and about 270 (0.23%) were called active. All entries are inconclusive by the source's own rule. Clear calls are listed elsewhere. Calls follow the shape of the full dose curve.
assay: Primary qHTS Assay for Foot and Mouth Disease Virus Antivirals against NCGC Sytravon and CBC Compound Libraries: Firefly Luciferase Signal; details: FMDV antiviral cell assay; also: nearly all actives have a fitted effect of over 60% in size
Potency is read from the fitted curve at half-maximal effect.

Row | Compound | Potency
1 | Cc1cc([N+](=O)[O-])cc([N+](=O)[O-])c1O | inconclusive: 70.8 µM
